Experimental data taken from article PMC6149722, “Comparison of the Binding of Reversible Inhibitors to Human Butyrylcholinesterase and Acetylcholinesterase: A Crystallographic, Kinetic and Calorimetric Study” (Molecules : A Journal of Synthetic Chemistry and Natural …, 2017).

Chains of the proteins cited; added tags and fusions are not shown. Residues count along the entry.
UniProt P22303, 32-574 limits assumed: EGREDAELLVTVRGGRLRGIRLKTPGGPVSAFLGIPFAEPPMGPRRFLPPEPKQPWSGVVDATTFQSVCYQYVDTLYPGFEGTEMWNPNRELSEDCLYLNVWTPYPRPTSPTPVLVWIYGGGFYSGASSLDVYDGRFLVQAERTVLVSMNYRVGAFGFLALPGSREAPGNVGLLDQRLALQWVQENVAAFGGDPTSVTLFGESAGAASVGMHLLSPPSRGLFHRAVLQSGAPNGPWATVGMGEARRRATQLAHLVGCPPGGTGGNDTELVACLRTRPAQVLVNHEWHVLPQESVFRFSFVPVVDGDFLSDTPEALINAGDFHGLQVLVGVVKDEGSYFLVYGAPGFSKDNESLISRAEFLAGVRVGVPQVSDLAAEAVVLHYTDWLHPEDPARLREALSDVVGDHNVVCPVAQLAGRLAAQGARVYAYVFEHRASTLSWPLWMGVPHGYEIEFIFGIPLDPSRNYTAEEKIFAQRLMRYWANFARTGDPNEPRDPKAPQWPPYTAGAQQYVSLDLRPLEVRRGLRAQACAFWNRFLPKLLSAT

Molecular target: hAChE (Homo sapiens, UniProt P22303)
Assay: Isothermal titration calorimetry (ITC) with hAChE
Type: binding
Conditions: 25 °C, pH 8.0

Structure (SMILES): CC[N+](C)(CC)CCC[n+]1c(-c2ccccc2)c2cc(N)ccc2c2ccc(N)cc21
- ΔG (±SD), Gibbs free energy of binding: -7.07 ± 0.072 kcal/mol
